According to PubChem BioAssay AID720664 (National Center for Advancing Translational Sciences (NCATS), 2013):
Only a part is listed here, and it is no random draw. Some of these compounds have results that are not shown, active ones among them. Results filed as inconclusive are left out. Activity calls are given as the source filed them. The call rests on the fitted dose curve; in most records, active means well fitted inhibition curve with a large enough effect; inconclusive means small, poorly fitted or top-dose-only effect; inactive means flat fitted curve, though single readings scatter.

By UniProt entry, the sequences of proteins in these tests, tags left out.
UniProt P51570, whole entry: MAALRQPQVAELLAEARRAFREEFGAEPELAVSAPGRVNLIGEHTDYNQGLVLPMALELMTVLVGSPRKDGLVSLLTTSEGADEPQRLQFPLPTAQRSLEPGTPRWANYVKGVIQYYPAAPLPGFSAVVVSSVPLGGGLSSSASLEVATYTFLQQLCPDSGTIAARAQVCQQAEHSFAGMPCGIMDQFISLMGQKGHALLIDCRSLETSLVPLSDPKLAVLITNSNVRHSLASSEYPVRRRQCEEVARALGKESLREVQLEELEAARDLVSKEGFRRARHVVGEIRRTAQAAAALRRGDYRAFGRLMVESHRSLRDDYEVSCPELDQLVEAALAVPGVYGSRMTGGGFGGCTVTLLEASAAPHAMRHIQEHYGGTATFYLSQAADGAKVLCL

Target: Galactokinase (Homo sapiens) (UniProt P51570)
Test: qHTS for Inhibitors of Human Galactokinase (GALK): SAR round 3
Conditions: ADP detection luminescence, 1 h; at 57.5 µM (top of the series)
Source text: Inherited deficiency of galactose-1-phosphate uridyltransferase (GALT) can result in a potentially lethal disorder called Classic Galactosemia (OMIM 230400). Several lines of evidence indicate that an elevated level of galactose-1-phosphate (gal-1-p), the product of galactokinase (GALK), is a major, if not sole, pathogenic mechanism in patients with classic galactosemia. Therefore, finding inhibitors of GALK is a potential novel therapy for this inherent metabolic disease and is the long term goal of this project. Active compounds observed in the qHTS GALK assay (AID: 1868) were cherry picked and re-screened for validation. GALK (provided by Kent Lai) was assayed using ATP and D-(+)-Galactose (Sigma-Aldrich cat# G0750) as substrates. Promega ADP-Glo technology was used to detect the ADP product formed after the kinase reaction. […]
Three uL/well of ATP-buffer solution (35 uM ATP, 20mM HEPES pH8.0, 5 mM MgCl2, 60 mM NaCl, 1 mM DTT, 0.01% BSA final concentration) was dispensed into 1536-well, assay plates (Greiner, solid white medium-binding plates) with Aurora Discovery BioRAPTR Flying Reagent Dispenser (FRD; Beckton-Dickenson). […] Luminescence was detected with the ViewLux plate reader (Perkin Elmer, Waltham, MA) after 2 min incubation using a 1 sec exposure time and 2x binning.

With O=C(C1CCC1)N1CCN(C/C=C/c2ccccc2)CC1 the activity change, negative = inhibition was inactive: 5.22%.
